Data as given in patent US20130295185A1, “COMPOUNDS AND METHODS FOR INDUCING APOPTOSIS IN CANCER CELLS USING A BH3 ALPHA-HELICAL MIMETIC” (H. Lee Moffitt Cancer Center and Research Institute, Inc., priority 2011, published 2013).

The chains behind the UniProt entries cited, without tags or fusion partners.
UniProt Q07817, whole entry: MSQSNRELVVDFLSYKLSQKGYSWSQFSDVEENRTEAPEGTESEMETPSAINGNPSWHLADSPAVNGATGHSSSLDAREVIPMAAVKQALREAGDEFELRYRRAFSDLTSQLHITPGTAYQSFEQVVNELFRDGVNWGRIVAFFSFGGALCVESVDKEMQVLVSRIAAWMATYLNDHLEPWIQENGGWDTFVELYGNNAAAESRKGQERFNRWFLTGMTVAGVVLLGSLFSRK

Assays:
[1] = Tumor accumulation in A549 xenograft nude mice; conditions: IP, 30 mg/kg, in DMSO, tested form: diammonium salt (as drawn, CO2NH4)
Experimental: FIG. 10 is an image depicting tumor accumulation of the BH3M6 compound at 30 mg/kg from free drug delivered i.p., or micelle formulation delivered i.v. or oral gavage.
An A549 lung cancer xenograft model was used for the plasma and tumor accumulation studies. A549 lung cancer xenografts were grown in nude mice by implanting approximately 10 million cells into the right flank of each mouse, and allowed 3 weeks for the tumors to establish log growth and reach about 300-400 mm^3. The formulation from Example 2 was dissolved in 150 mM NaCl for both intravenous (IV) administration and oral administration. The free drug was dissolved in DMSO for intraperitoneal (IP) administration. Time points for sample collection were 5 minutes, 1 hour and 6 hours post administration. Naive, tumor-bearing mice were used as controls for blank plasma and tumor tissue. Blood was collected by heart puncture, where approximately 500 μL was added to a 1.5 mL collection tube containing EDTA as anticoagulant. Plasma was isolated from blood by centrifugation at 2000 RPM for 5 minutes. The BH3-M6 compound was extracted from plasma by adding 50 μL of each plasma sample to 150 μL ice cold methanol. Samples were vortexed for 10 minutes, centrifuged at 13,000 RPM for 10 minutes, and the methanol supernatant was collected for HPLC analysis to determine plasma pharmacokinetics of the BH3-M6 compound. […]

[2] = molecular target: Flag-Bim with HA-Bcl-XL (Homo sapiens, UniProt Q07817); test: Co-immunoprecipitation from HEK293T cells; conditions: 0-100 μM BH3-M6 or 100 μM TPC, 2 h, tested form: diammonium salt (as drawn, CO2NH4)
Experimental: FIG. 4 is a series of images illustrating BH3-M6 inhibits the interaction between Bcl-XL, Bcl-2, and Mcl-1 with Bim, Bak or Bax in intact cells. (A) Co-immunoprecipitation from HEK293T cells. HEK293T cells were co-transfected with HA-Bcl-XL and Flag-BimEL for 18 h. Cells were exposed to 0, 25, 50, and 100 μM of BH3-M6 or 100 μM of TPC for 2 h at 37° C., lysed and subjected to immunoprecipitation with anti-FLAG-M2 beads. The resulting immune complexes, as well as total lysates, were analyzed by Western blotting with the indicated antibodies. (B) Co-immunoprecipitation from MDA-MB-468 cells expressing Bcl-XL-IRES-BimEL, Bcl-2-IRES-BimEL, and Mcl-1-IRES-BimEL. […] The resulting immune complexes were analyzed by Western blotting with Bim, Bcl-XL, Bcl-2, and Mcl-1 antibodies. […] The resulting immune complexes were analyzed by Western blotting with the indicated antibodies. […] The resulting immune complexes were analyzed by Western blotting with the antibodies indicated on the right.
HEK293T cells were co-transfected with 5 μg of pcDNA3, pCMV2, pcDNA3-HA-Bcl-XL or pCMV2-Flag-BimEL expression vectors using TransFectin™ reagent (Bio-Rad Laboratories, Hercules, Calif.) and, after 18 h, exposed to DMSO, BH3-M6, or TPC (terphenyl control) for 2 h at 37° C. […] Beads were washed four times with lysis buffer, boiled for 5 min in Laemmli sample buffer and analyzed by Western blotting. […]

AUC [1]: 11.5 µg·h/g | TMax [1]: 6 h
SMILES: CC(C)Cc1cc(-c2ccc(-c3ccc(CCC(=O)O)cc3CC(C)C)cc2Cc2ccccc2)ccc1OCC(=O)O
inhibition of association of Flag-Bim with HA-Bcl-XL [2]: inhibited the association of Flag-Bim with HA-Bcl-XL in a dose-dependent manner
